Source: patent US6339070B1, “Gene construct encoding a heterologous prodrug-activating enzyme and a cell targeting moiety” (Zeneca Limited, priority 1997, dated 2002)

Key:
[1] = test system: non-transfected HCT116 cells; assay: In vitro cell growth inhibition (SRB), non-transfected HCT116; assay type: cell-based; settings: read-out: IC50 (concentration required to inhibit cell growth by 50%); non-transfected HCT116, 1 hr exposure, three further days
[2] = test system: HCT116 cells transfected with the antibody-CPG2 fusion protein gene; settings: read-out: IC50 (concentration required to inhibit cell growth by 50%); transfected HCT116, 1 hr exposure, three further days

Q: Which results are given for `Oc1ccc(N(CCCl)CCCl)cc1`?
A: IC50 [1]: 1000 nM; IC50 [2]: 1000 nM
